System: not listed separately
Assay: Rate constant(Ko) for spontaneous hydrolysis of 7.5*10e-4 M AcSCh in 0.1 M phosphate buffer
Details: not given
Work on `O/N=C/c1nnc(-c2ccccc2)o1` yielded a Ko of 0.00015 min⁻¹.
`Cc1nsnc1/C=N\O` showed a Ko of 0.00062 min⁻¹.
In the case of `O/N=C\c1cnsn1`, the Ko is reported as 0.00051 min⁻¹.
Work on `O/N=C/c1nc(-c2ccccc2)no1` yielded a Ko of 0.00031 min⁻¹.
Work on `CCN(CC)CCS/C(=N\O)c1nc(-c2ccccc2)no1` yielded a Ko of 0.00026 min⁻¹.
`Cc1nsc(/C=N/O)n1` showed a Ko of 0.00025 min⁻¹.
`O/N=C/c1cnns1` showed a Ko of 0.00025 min⁻¹.
For `CCN(CC)CCS/C(=N\O)c1nnc(-c2ccccc2)o1.Cl`, the Ko was 0.00012 min⁻¹.
`CCN(CC)CCS/C(=N/O)c1nsnc1C.Cl` showed a Ko of 0.00028 min⁻¹.
For `CCN(CC)CCS/C(=N/O)c1cnsn1`, the Ko was 0.00028 min⁻¹.
With `Cc1nonc1/C=N/O` the Ko was 0.00027 min⁻¹.
Work on `CCN(CC)CCS/C(=N/O)c1nonc1C.Cl` yielded a Ko of 0.00028 min⁻¹.
Work on `Cc1noc(/C=N/O)n1` yielded a Ko of 0.00024 min⁻¹.
Compound `CCN(CC)CCS/C(=N\O)c1nc(C)no1` has a Ko of 0.00016 min⁻¹.

System: Anguilliformes
Assay: Concentration at 1.50 uM that inhibits 50%of acetylcholinesterase activity evaluated in vitro at a pH of 8 in the presence of 7.5x10E-4 acetylthiocholine
Details: read-out: I50
`CCN(CC)CCS/C(=N\O)c1nc(-c2ccccc2)no1` gave an IC50 of 7.5 µM.

System: not listed separately
Assay: Biomolecular rate constant(Kn) for reaction with 7.5*10e-4 M EPMP under pseudo-zero-order conditions
Details: not given
Work on `CCN(CC)CCS/C(=N\O)c1nc(-c2ccccc2)no1` yielded a Kn of 0.00488 M⁻¹ s⁻¹.
`C[n+]1ccccc1/C=N/O.[I-]` showed a Kn of 0.095 M⁻¹ s⁻¹.
With `CCN(CC)CCS/C(=N/O)C(=O)c1ccc(Br)cc1.Cl` the Kn was 0.0187 M⁻¹ s⁻¹.
`Cc1nonc1/C=N/O` showed a Kn of 0.225 M⁻¹ s⁻¹.

System: not listed separately
Assay: Effective biomolecular rate constant in the conditions of 25degreeC,pH 7.6
Details: not given
`C[n+]1ccccc1/C=N/O.[I-]` showed a K HOX of 2780.
With `CCN(CC)CCS/C(=N/O)C(=O)c1ccc(Br)cc1.Cl` the K HOX was 56.2.

System: not listed separately
Assay: Biomolecular rate constant for reactivation and measure of the inherent reactivity of the oximate form of the reactivator at the concentration 1.00 mM [HOX] in the conditions of 25degreeC,pH 7.6
Details: pH 7.6, 1000 µM
With `O/N=C/c1nnc(-c2ccccc2)o1` the K OX was 1.52 M⁻¹ s⁻¹.
`CCN(CC)CCS/C(=N\O)c1nc(-c2ccccc2)no1` gave a K OX of 0.365 M⁻¹ s⁻¹.
`CCN(CC)CCS/C(=N\O)c1nnc(-c2ccccc2)o1.Cl` gave a K OX of 0.11 M⁻¹ s⁻¹.
`CCN(CC)CCS/C(=N/O)c1nsnc1C.Cl` gave a K OX of 1.1 M⁻¹ s⁻¹.
With `CCN(CC)CCS/C(=N/O)c1cnsn1` the K OX was 0.857 M⁻¹ s⁻¹.
`CCN(CC)CCS/C(=N/O)c1nonc1C.Cl` gave a K OX of 0.308 M⁻¹ s⁻¹.
With `Cc1noc(/C=N/O)n1` the K OX was 13.3 M⁻¹ s⁻¹.
Compound `CCN(CC)CCS/C(=N\O)c1nc(C)no1` has a K OX of 0.0937 M⁻¹ s⁻¹.

System: not listed separately
Assay: Effective biomolecular rate constant at the concentration 0.500 mM [HOX] in the conditions of 25degreeC,pH 7.6
Details: pH 7.6, 500 µM
With `O/N=C/c1nc(-c2ccccc2)no1` the K HOX was 175.

System: not listed separately
Assay: Biomolecular rate constant for reactivation and measure of the inherent reactivity of the oximate form of the reactivator at the concentration 0.790 mM [HOX] in the conditions of 25degreeC,pH 7.6
Details: pH 7.6, 790 µM
`Cc1nsc(/C=N/O)n1` showed a K OX of 0.295 M⁻¹ s⁻¹.

System: Anguilliformes
Assay: Concentration at 2 uM that inhibits 50%of acetylcholinesterase activity evaluated in vitro at a pH of 8 in the presence of 7.5x10E-4 acetylthiocholine
Details: read-out: I50
`CCN(CC)CCS/C(=N\O)c1nnc(-c2ccccc2)o1` gave an IC50 of 22 µM.

System: not listed separately
Assay: Biomolecular rate constant(kn) for reaction of oximate with 7.5*10e-4 M AcSCh in 0.1 M phosphate buffer
Details: not given
Work on `O/N=C/c1nnc(-c2ccccc2)o1` yielded a Kn of 1.32 M⁻¹ s⁻¹.
Work on `Cc1nsnc1/C=N\O` yielded a Kn of 3.95 M⁻¹ s⁻¹.
Compound `O/N=C\c1cnsn1` has a Kn of 3.45 M⁻¹ s⁻¹.
In the case of `O/N=C/c1nc(-c2ccccc2)no1`, the Kn is reported as 0.863 M⁻¹ s⁻¹.
`CCN(CC)CCS/C(=N\O)c1nc(-c2ccccc2)no1` gave a Kn of 0.0725 M⁻¹ s⁻¹.
Work on `Cc1nsc(/C=N/O)n1` yielded a Kn of 0.0947 M⁻¹ s⁻¹.
`O/N=C/c1cnns1` gave a Kn of 0.712 M⁻¹ s⁻¹.
`CCN(CC)CCS/C(=N\O)c1nnc(-c2ccccc2)o1.Cl` gave a Kn of 0.038 M⁻¹ s⁻¹.
For `CCN(CC)CCS/C(=N/O)c1nsnc1C.Cl`, the Kn was 1.19 M⁻¹ s⁻¹.
Work on `CCN(CC)CCS/C(=N/O)c1cnsn1` yielded a Kn of 0.427 M⁻¹ s⁻¹.
Work on `Cc1nonc1/C=N/O` yielded a Kn of 2.13 M⁻¹ s⁻¹.
`CCN(CC)CCS/C(=N/O)c1nonc1C.Cl` showed a Kn of 0.628 M⁻¹ s⁻¹.
Work on `Cc1noc(/C=N/O)n1` yielded a Kn of 1.53 M⁻¹ s⁻¹.
`CCN(CC)CCS/C(=N\O)c1nc(C)no1` showed a Kn of 0.0635 M⁻¹ s⁻¹.

System: not listed separately
Assay: Partition coefficient (logP)
Details: octanol/water
For `O/N=C/c1nnc(-c2ccccc2)o1`, the logP was 1.96.
Compound `O/N=C/c1nc(-c2ccccc2)no1` has a logP of 2.61.
`CCN(CC)CCS/C(=N\O)c1nc(-c2ccccc2)no1` gave a logP of 1.78.
Work on `Cc1nsc(/C=N/O)n1` yielded a logP of 0.66.
For `O/N=C/c1cnns1`, the logP was 0.72.
Work on `CCN(CC)CCS/C(=N\O)c1nnc(-c2ccccc2)o1.Cl` yielded a logP of 1.13.
Compound `CCN(CC)CCS/C(=N/O)c1nsnc1C.Cl` has a logP of 1.02.
Compound `CCN(CC)CCS/C(=N/O)c1cnsn1` has a logP of 0.74.
`CCN(CC)CCS/C(=N/O)c1nonc1C.Cl` showed a logP of 1.1.
With `Cc1noc(/C=N/O)n1` the logP was 0.47.

System: not listed separately
Assay: Effective biomolecular rate constant at the concentration 0.767 mM [HOX] in the conditions of 25degreeC,pH 7.6
Details: pH 7.6, 767 µM
`O/N=C/c1cnns1` gave a K HOX of 7.02.

System: not listed separately
Assay: Biomolecular rate constant for reactivation and measure of the inherent reactivity of the oximate form of the reactivator in the conditions of 25degreeC,pH 7.6
Details: not given
Compound `C[n+]1ccccc1/C=N/O.[I-]` has a K OX of 160 M⁻¹ s⁻¹.
`CCN(CC)CCS/C(=N/O)C(=O)c1ccc(Br)cc1.Cl` showed a K OX of 1.59 M⁻¹ s⁻¹.

System: not listed separately
Assay: Dissociation constant (pKa in 0.1 M buffer)
Details: not given
In the case of `O/N=C/c1nnc(-c2ccccc2)o1`, the pKa is reported as 8.41.
In the case of `Cc1nsnc1/C=N\O`, the pKa is reported as 9.61.
For `O/N=C\c1cnsn1`, the pKa was 9.45.
With `CCN(CC)CCS/C(=N\O)c1nnc(-c2ccccc2)o1.Cl` the pKa was 6.35.
`CCN(CC)CCS/C(=N/O)c1nsnc1C.Cl` showed a pKa of 8.65.
For `CCN(CC)CCS/C(=N/O)c1cnsn1`, the pKa was 7.69.
For `CCN(CC)CCS/C(=N/O)C(=O)c1ccc(Br)cc1.Cl`, the pKa was 7.44.
With `Cc1nonc1/C=N/O` the pKa was 9.15.
Compound `CCN(CC)CCS/C(=N/O)c1nonc1C.Cl` has a pKa of 7.59.
Compound `Cc1noc(/C=N/O)n1` has a pKa of 8.1.
With `CCN(CC)CCS/C(=N\O)c1nc(C)no1` the pKa was 6.3.

System: not listed separately
Assay: Biomolecular rate constant for reactivation and measure of the inherent reactivity of the oximate form of the reactivator at the concentration 0.500 mM [HOX] in the conditions of 25degreeC,pH 7.6
Details: pH 7.6, 500 µM
`O/N=C/c1nc(-c2ccccc2)no1` gave a K OX of 9.28 M⁻¹ s⁻¹.

System: not listed separately
Assay: Biomolecular rate constant for reactivation and measure of the inherent reactivity of the oximate form of the reactivator at the concentration 0.767 mM [HOX] in the conditions of 25degreeC,pH 7.6
Details: pH 7.6, 767 µM
In the case of `O/N=C/c1cnns1`, the K OX is reported as 0.242 M⁻¹ s⁻¹.

System: not listed separately
Assay: Effective biomolecular rate constant at the concentration 1.00 mM [HOX] in the conditions of 25degreeC,pH 7.6
Details: pH 7.6, 1000 µM
`O/N=C/c1nnc(-c2ccccc2)o1` showed a K HOX of 12.2.
For `CCN(CC)CCS/C(=N\O)c1nc(-c2ccccc2)no1`, the K HOX was 20.8.
`CCN(CC)CCS/C(=N\O)c1nnc(-c2ccccc2)o1.Cl` gave a K HOX of 6.42.
For `CCN(CC)CCS/C(=N/O)c1nsnc1C.Cl`, the K HOX was 5.41.
Work on `CCN(CC)CCS/C(=N/O)c1cnsn1` yielded a K HOX of 23.
Work on `CCN(CC)CCS/C(=N/O)c1nonc1C.Cl` yielded a K HOX of 10.6.
Compound `Cc1noc(/C=N/O)n1` has a K HOX of 192.
`CCN(CC)CCS/C(=N\O)c1nc(C)no1` gave a K HOX of 5.34.

System: not listed separately
Assay: Effective biomolecular rate constant at the concentration 0.790 mM [HOX] in the conditions of 25degreeC,pH 7.6
Details: pH 7.6, 790 µM
`Cc1nsc(/C=N/O)n1` showed a K HOX of 14.3.
